These results are taken from PubChem BioAssay AID485281 (National Center for Advancing Translational Sciences (NCATS), 2010).

By UniProt entry, the sequences of proteins in these tests, tags left out. Residues count along the entry.
UniProt P02791, 2-175 limits assumed: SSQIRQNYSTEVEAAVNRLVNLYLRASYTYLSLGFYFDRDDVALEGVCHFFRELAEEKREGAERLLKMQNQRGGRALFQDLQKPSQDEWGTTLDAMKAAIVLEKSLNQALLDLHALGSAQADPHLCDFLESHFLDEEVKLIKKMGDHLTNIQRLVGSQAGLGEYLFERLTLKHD

Values joined by “and” are separate entries in the source; they are usually repeats but may differ in a detail not shown here. Equal values may be shown once. This is a selection; strong and weak results do not stand in their true shares. Some of these compounds have results that are not shown, active ones among them. Records with an inconclusive call do not appear. Active and inactive are the calls of the source. Calls follow the shape of the dose curve; as a rule, active = well fitted inhibition curve with a large enough effect; inconclusive = small, poorly fitted or top-dose-only effect; inactive = no such curve, though single readings can be large or run the other way.
% is scaled to controls: 0 for no effect and ±100 for the full control effect.

The target of this experiment is Ferritin light chain (Equus caballus) (UniProt P02791). The experiment in a line: qHTS Assay for Identification of Novel General Anesthetics. Also: nearly all actives have a fitted effect of over 20% in size. To be noted: apoferritin/1-aminoanthracene competitive binding, fluorescence; at 77.5 µM (top of the series).
For `COc1ccc(Br)c(C(=O)NCC2(N3CCCCC3)CCCCC2)c1`, the activity change, negative = displacement was inactive: -1.75%.

In the case of `Cc1cccc(C(=O)NCC2(N(C)C)CCCCC2)c1`, the activity change, negative = displacement is inactive: 8.25%.

As for `COc1cc(C(=O)NCC2(N(C)C)CCCCC2)cc(OC)c1OC`, the activity change, negative = displacement is inactive: 4.46%.

Regarding `CN(C)c1cccc(C(=O)NCC2(N(C)C)CCCCC2)c1`, the activity change, negative = displacement is inactive: -4.77%.

Take `CC(C)Oc1ccc(C(=O)NCC2(N(C)C)CCCCC2)cc1`: the activity change, negative = displacement was inactive: 5.78% and inactive: -4.48%.

For the molecule `O=C(OC1CN2CCC1CC2)C(CO)(c1ccccc1)c1ccccc1` (centres undefined), the activity change, negative = displacement was inactive: 4.66%.

As for `COc1cccc(C(=O)NCC2(N3CCOCC3)CCCCC2)c1`, the activity change, negative = displacement is inactive: -3.59%.

Take `CC(C)COc1ccc(C(=O)NCC2(N(C)C)CCCCC2)cc1`: the activity change, negative = displacement is inactive: -13.4%.

With `COc1ccc(C(=O)NCC2(N(C)C)CCCCC2)cc1Cl`, the activity change, negative = displacement was inactive: 4.91%.

With `COc1ccc(Cl)cc1C(=O)NCC1(N(C)C)CCCCC1`, the activity change, negative = displacement was inactive: 0.326%.

For the molecule `COc1cccc(C(=O)NCC2(N3CCCCC3)CCCCC2)c1`, the activity change, negative = displacement was inactive: -7.33%.

Regarding `O=C(NCC1(N2CCCCC2)CCCCC1)c1cccc(Cl)c1`, the activity change, negative = displacement is inactive: -8.4%.

On to `CN(C)C1(CNC(=O)c2ccc(Br)cc2)CCCCC1`, for which the activity change, negative = displacement was inactive: 0.567%.

Take `COc1cc(C(=O)NCC2(N(C)C)CCCCC2)c([N+](=O)[O-])cc1OC`: the activity change, negative = displacement was inactive: -0.871%.

As for `O=C(NCC1(N2CCCCC2)CCCCC1)c1cc(F)c(F)cc1Cl`, the activity change, negative = displacement was inactive: -9.59%.

Consider `C=CCN1CCN(CCOC(=O)C(O)(c2ccccc2)c2ccccc2)CC1`, for which the activity change, negative = displacement is inactive: -2.25%.

With `O=C(NCC1(N2CCCCC2)CCCCC1)c1cccc(Br)c1`, the activity change, negative = displacement is inactive: -11.8%.

Take `Cc1cc(C(=O)NCC2(N3CCCCC3)CCCCC2)ccc1[N+](=O)[O-]`: the activity change, negative = displacement was inactive: -0.74%.

For `CCN1CCCC(OC(=O)C2(O)c3ccccc3C=Cc3ccccc32)C1` (centres undefined), the activity change, negative = displacement was inactive: -12.4%.

Turning to `CCOc1cccc(C(=O)NCC2(N(C)C)CCCCC2)c1`, the activity change, negative = displacement is inactive: -1.37%.

For `COc1ccc(C(=O)NCC2(N(C)C)CCCCC2)cc1`, the activity change, negative = displacement is inactive: -3.67%.

Take `CN(C)C1CCCC1OC(=O)C(O)(c1ccccc1)c1ccccc1` (centres undefined): the activity change, negative = displacement is inactive: -4.9%.

`CN(C)c1ccc(C(=O)NCC2(N(C)C)CCCCC2)cc1`: the activity change, negative = displacement was inactive: 2.4%.

Regarding `CN(C)C1(CNC(=O)c2ccccc2[N+](=O)[O-])CCCCC1`, the activity change, negative = displacement was inactive: 4%.

Consider `Cc1ccccc1C(=O)NCC1(N2CCCCC2)CCCCC1`, for which the activity change, negative = displacement was inactive: -8.74%.

For the molecule `CCCCOc1ccccc1C(=O)NCC1(N(C)C)CCCCC1`, the activity change, negative = displacement is inactive: 5.76%.

For `CC(C)N1C(=O)CC2(CCN(CCOC(=O)C(O)(c3ccccc3)c3ccccc3)CC2)C1=O`, the activity change, negative = displacement was inactive: -12.5%.

As to `COc1cc(SC)ccc1C(=O)NCC1(N(C)C)CCCCC1`, the activity change, negative = displacement is inactive: -5.35%.

Consider `CN(C)C1(CNC(=O)c2cccc(Cl)c2)CCCCC1`, for which the activity change, negative = displacement was inactive: -5.48%.

Take `CCN(CC)CC(C)C(C)OC(=O)C(O)(c1ccccc1)c1ccccc1` (centres undefined): the activity change, negative = displacement is inactive: 3.42%.

`CN(C)C1(CNC(=O)c2ccccc2F)CCCCC1`: the activity change, negative = displacement was inactive: 11%.

On to `Cc1ccc(C(=O)NCC2(N3CCCCC3)CCCCC2)cc1`, for which the activity change, negative = displacement was inactive: -3.95%.

As to `O=C(NCC1(N2CCCCC2)CCCCC1)c1cc([N+](=O)[O-])ccc1Cl`, the activity change, negative = displacement was inactive: -7.62%.

For the molecule `CN1[C@@H]2CC[C@H]1CC(OC(=O)C(O)(c1ccccc1)c1ccccc1)C2` (some centres undefined), the activity change, negative = displacement is inactive: -0.189%.
